Measurements: ChEMBL document CHEMBL3132828, “In vitro anticancer activity and SAR studies of triazolyl aminoacyl(peptidyl) penicillins” (Medchemcomm, 2014)

Tests used:
[1] = Selectivity ratio of IC50 for mouse NMuMG cells to IC50 for mouse B16F0 cells; format: ADME, cell-based
[2] = Selectivity ratio of IC50 for mouse NMuMG cells to IC50 for human HeLa cells; format: ADME, cell-based
[3] = Cytotoxicity against mouse NMuMG cells assessed as hexosaminidase level after 72 hrs by colorimetric analysis; format: cell-based
[4] = Cytotoxicity against mouse B16F0 cells assessed as hexosaminidase level after 72 hrs by colorimetric analysis
HeLa = test: Cytotoxicity against human HeLa cells assessed as hexosaminidase level after 72 hrs by colorimetric analysis

| Compound | Ratio IC50 [1] | Ratio IC50 [2] | IC50 [3] [µM] | IC50 [4] [µM] | IC50 (HeLa) [µM] |
| --- | --- | --- | --- | --- | --- |
| COC(=O)[C@@H](NC(=O)c1cn(C[C@@H]2N3C(=O)C(Br)(Br)[C@H]3SC2(C)C)nn1)C(C)C | 2 | 3 | 33 | 18 | 12 |
| COC(=O)[C@H](CC(C)C)NC(=O)c1cn(C[C@@H]2N3C(=O)C(Br)(Br)[C@H]3SC2(C)C)nn1 | 2 | – | 39 | 18 | – |
| CC1(C)S[C@H]2N(C(=O)C2(Br)Br)[C@H]1C(=O)OCc1ccccc1 | 5 | 6 | 69 | 15 | 12 |
